Only a part is listed here, and it is no random draw. Some results for these compounds are left out of this collection, so the calls shown say nothing about other tests. The source made the active and inactive calls.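 The calls were made as follows: active = drop in luminescence signal, shown as inhibition above about 50% in the replicate tests (limit read from the data, passing the limit was not always enough); inconclusive = probably only some replicates passing the limit; inactive = the rest.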

Drawing on PubChem BioAssay AID720647 (Broad Institute, 2013), this text covers inhibition for 23 compounds.

For this assay, the system named is Drosophila bursicon receptor LGR2 (rickets). The assay is described as follows: LGR2 cAMP reporter signal reduction – cell-based, HEK293, CRE-luciferase reporter, bursicon stimulation, primary screen (AID 720647).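 Also: agonist challenge used bursicon conditioned medium at about half maximal strength.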 Conditions: bursicon-stimulated, 4 h, at 9.99 µM, stronger effect = higher value.
On to `CC(C)N1C(=O)CC2(CCN(CCOC(=O)C(O)(c3ccccc3)c3ccccc3)CC2)C1=O`, for which the inhibition was inactive: -12.5%.
As for `CCN(CC)CC(C)C(C)OC(=O)C(O)(c1ccccc1)c1ccccc1` (stereo not drawn), the figure is inactive: 14.7%; as for `COc1cc(SC)ccc1C(=O)NCC1(N(C)C)CCCCC1`, inactive: 0.373%; as for `Cc1ccc(C(=O)NCC2(N3CCCCC3)CCCCC2)cc1`, inactive: -3.85%.
On to `O=C(NCC1(N2CCCCC2)CCCCC1)c1cc([N+](=O)[O-])ccc1Cl`, for which the inhibition is inactive: -10.5%.
As to `CN1[C@@H]2CC[C@H]1CC(OC(=O)C(O)(c1ccccc1)c1ccccc1)C2` (stereo partly drawn), the inhibition was inactive: 14.6%.
Under `C=CCN1CCN(CCOC(=O)C(O)(c2ccccc2)c2ccccc2)CC1` stands inactive: 10.5%; under `O=C(NCC1(N2CCCCC2)CCCCC1)c1cc(F)c(F)cc1Cl`, inactive: 12.3%.
Consider `CCN1CCCC(OC(=O)C2(O)c3ccccc3C=Cc3ccccc32)C1` (stereo not drawn), for which the inhibition is inactive: -12%.
With `Cc1cc(C(=O)NCC2(N3CCCCC3)CCCCC2)ccc1[N+](=O)[O-]`, the inhibition was inactive: -2.32%.
Take `O=C(NCC1(N2CCCCC2)CCCCC1)c1cccc(Br)c1`: the inhibition was inactive: 1.59%.
With `COc1ccc(C(=O)NCC2(N(C)C)CCCCC2)cc1`, the inhibition is inactive: -4.5%.
As for `Cc1ccccc1C(=O)NCC1(N2CCCCC2)CCCCC1`, the figure is inactive: 11.4%.
As to `CN(C)c1ccc(C(=O)NCC2(N(C)C)CCCCC2)cc1`, the inhibition is inactive: -25.5%.
As for `CN(C)C1CCCC1OC(=O)C(O)(c1ccccc1)c1ccccc1` (stereo not drawn), the figure is inactive: -6.92%.
As for `COc1cccc(C(=O)NCC2(N3CCCCC3)CCCCC2)c1`, the figure is inactive: 8.3%; as for `COc1ccc(Cl)cc1C(=O)NCC1(N(C)C)CCCCC1`, inactive: -5.88%.
Under `O=C(NCC1(N2CCCCC2)CCCCC1)c1cccc(Cl)c1` stands inactive: 14%; under `CN(C)C1(CNC(=O)c2ccc(Br)cc2)CCCCC1`, inactive: 9.08%.
As for `COc1cc(C(=O)NCC2(N(C)C)CCCCC2)c([N+](=O)[O-])cc1OC`, the inhibition was inactive: -3.32%.
Under `COc1ccc(Br)c(C(=O)NCC2(N3CCCCC3)CCCCC2)c1` stands inactive: 7.47%; under `CC(C)Oc1ccc(C(=O)NCC2(N(C)C)CCCCC2)cc1`, inactive: -3.43%; under `O=C(OCCN1CCCC1)C(O)(c1ccccc1)c1ccccc1`, inactive: -0.955%.
